Assay [1] concerns NCI-H522 human lung cancer cells. Put plainly: Cell viability assay (methylene blue staining), NCI-H522. In kind it is cell-based. The conditions noted are these: NCI-H522, 72 h, read-out: IC50 ± SD (n = 3) on NCI-H522 cell line.
Assay [2] deals with HCT116 human colorectal carcinoma cells. Nature of the assay: Cell viability assay (methylene blue staining), HCT-116. It is filed as cell-based. The following applies: HCT-116, 72 h, read-out: IC50 ± SD (n = 3) on HCT-116 cell line.
Assay [3] deals with CCRF-CEM cell line (leukemia). The conditions noted are these: single dose of 10 mM.
Assay [4] deals with NCI-H23 cell line (NSC-Lung cancer). The conditions noted are these: single dose of 10 mM.
The subject of assay [5] is SF-539 (CNS cancer cell line). The conditions noted are these: single dose of 10 mM.
Assay [6] concerns SNB-75 (CNS cancer cell line). The conditions noted are these: single dose of 10 mM.
Assay [7] has as its system LOX IMVI cell line (melanoma). The following applies: single dose of 10 mM.
Assay [8] deals with IGROV-1 (ovarian cancer cell line). The conditions noted are these: single dose of 10 mM.
For assay [9], the system named is PC-3 cells (prostate cancer). The conditions noted are these: single dose of 10 mM.
In assay [10] the test system is DU-145 cells (prostate cancer). The following applies: single dose of 10 mM.
Assay [11] concerns MDA-MB-231 (triple-negative breast cancer cell line). The following applies: single dose of 10 mM.

The source of these data is US20240109852A1, “Ferroptosis-HDAC Inhibitor Hybrid Anticancer Agents” (The University of Toledo, priority 2022, published 2024).

As usually defined, the IC50 is the concentration that gives 50% inhibition.

With `C#Cc1nc(C(=O)NCCCCCCC(=O)OC)cs1` [FC-1, Methyl 7-(2-ethynylthiazole-4-carboxamido)heptanoate], in [1], the IC50 amounted to 3330 nM.
Same read-out and setting: the value for `C#Cc1nc(/C=C\CCCCCC(=O)OCC)cs1` [FC-2, Ethyl (Z)-8-(2-ethynylthiazol-4-yl)oct-7-enoate] was 7330 nM; that for `C#Cc1nc(/C=C/CCCCCC(=O)OCC)cs1` [FC-3, Ethyl (E)-8-(2-ethynylthiazol-4-yl)oct-7-enoate] was 15700 nM.
Still for that read-out and setting: the value for `C#Cc1nc(/C=C/C=C/C(=O)OC)cs1` [FC-4, Methyl (2E,4E)-5-(2-ethynylthiazol-4-yl)penta-2,4-dienoate] was 2800 nM.
Turning to `C#Cc1nc(/C=C/C(=O)OC)cs1` [FC-5, Methyl (E)-3-(2-ethynylthiazol-4-yl)acrylate], the IC50 in assay [1] turned out to be 2290 nM; in assay [2], 13.7 µM.
Take `C#Cc1nc(C(=O)NCCCCCCC(=O)NO)cs1` [HY-1, 2-Ethynyl-N-(7-(hydroxyamino)-7-oxoheptyl)thiazole-4-carboxamide]: in [2], the IC50 stood at 0.61 µM. In addition, in assay [3], the “Growth %, CCRF-CEM” value is given as −41.42%. Also, the “Growth %, NCI-H23” value in [4] is −74.60%. The “Growth %, SF-539” value in assay [5] is −80.14%. Further, the “Growth %, SNB-75” value in assay [6] is recorded as −65.15%. Moreover, in assay [7], the “Growth %, LOX IMVI” value is recorded as −84.63%. The “Growth %, IGROV-1” value in assay [8] is reported as −72.55%. Besides, the “Growth %, PC-3” value in assay [9] is recorded as 14.28%. Further, the “Growth %, DU-145” value in assay [10] was −51.12%. The “Growth %, MDA-MB-231” value in assay [11] is given as −71.82%.
For the compound `C#Cc1nc(/C=C/C=C/C(=O)NO)cs1` [HY-4, (2E,4E)-5-(2-ethynylthiazol-4-yl)-N-hydroxypenta-2,4-dienamide], the IC50 in assay [1] was determined as 520 nM; in [2], 5.43 µM.
The matching figures for `C#Cc1nc(/C=C/C(=O)NO)cs1` [HY-5, (E)-3-(2-ethynylthiazol-4-yl)-N-hydroxyacrylamide]: 790 nM and 5.16 µM.
